What is called inhibition is the relative decrease from the control value, in per cent.

Chains of the proteins cited; added tags and fusions are not shown.
UniProt P40818, whole entry: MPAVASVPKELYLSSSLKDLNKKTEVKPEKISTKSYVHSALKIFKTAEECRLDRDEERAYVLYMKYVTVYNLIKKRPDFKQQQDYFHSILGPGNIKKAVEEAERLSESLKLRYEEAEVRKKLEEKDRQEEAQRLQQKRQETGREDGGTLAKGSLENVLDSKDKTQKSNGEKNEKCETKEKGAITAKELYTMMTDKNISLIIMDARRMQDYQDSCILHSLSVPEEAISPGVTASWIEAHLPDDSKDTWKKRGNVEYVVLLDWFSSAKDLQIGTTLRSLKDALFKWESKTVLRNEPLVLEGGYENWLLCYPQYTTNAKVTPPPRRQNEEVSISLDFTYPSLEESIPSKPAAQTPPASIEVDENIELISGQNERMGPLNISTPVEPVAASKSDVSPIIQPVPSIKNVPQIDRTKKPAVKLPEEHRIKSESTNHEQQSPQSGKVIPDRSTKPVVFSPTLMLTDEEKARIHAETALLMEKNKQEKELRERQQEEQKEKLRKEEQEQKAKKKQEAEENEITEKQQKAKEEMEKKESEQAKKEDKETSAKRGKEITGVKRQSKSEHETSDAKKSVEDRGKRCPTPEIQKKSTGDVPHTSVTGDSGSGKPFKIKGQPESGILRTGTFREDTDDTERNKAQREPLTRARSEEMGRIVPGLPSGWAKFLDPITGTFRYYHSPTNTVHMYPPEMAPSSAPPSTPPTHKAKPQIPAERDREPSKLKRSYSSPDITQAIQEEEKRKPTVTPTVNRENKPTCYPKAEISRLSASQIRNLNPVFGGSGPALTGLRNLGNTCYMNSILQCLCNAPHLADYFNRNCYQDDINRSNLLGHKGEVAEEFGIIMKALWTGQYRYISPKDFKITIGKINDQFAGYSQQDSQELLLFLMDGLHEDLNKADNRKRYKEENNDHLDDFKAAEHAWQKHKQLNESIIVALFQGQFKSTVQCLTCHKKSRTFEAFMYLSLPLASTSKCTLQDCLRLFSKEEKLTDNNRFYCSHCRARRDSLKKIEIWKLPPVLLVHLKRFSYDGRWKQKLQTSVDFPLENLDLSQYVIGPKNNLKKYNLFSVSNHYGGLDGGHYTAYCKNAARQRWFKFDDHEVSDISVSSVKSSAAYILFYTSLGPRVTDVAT

Structures are written as SMILES. The list shows a part of the results, in another mix than the full data. Calls of active or inactive are those of the source. Rule as the data show it: active = inhibition above about 30%; inactive = the rest.

This is an account of results in PubChem BioAssay AID1645853 (Buhrlage Lab, Dana-Farber Cancer Institute and Novartis …, 2021).

The target of the assay is Ubiquitin carboxyl-terminal hydrolase 8 (Homo sapiens) (UniProt P40818). Description: blocks human USP8 ubiquitin-rhodamine cleavage (AID 1645853). Conditions: purified USP8, Ub-rhodamine cleavage fluorescence, 30 min; at 20 µM; stronger effect = higher value.
On to `O=C(NCC1(N2CCCCC2)CCCCC1)c1ccc(F)cc1`, for which the inhibition was inactive: -28.8%.

For the molecule `CC1CN(CCc2ccccc2)CCC1=O` (stereo not drawn), the inhibition is inactive: 2.04%.

As for `Cc1ccccc1C(=O)NCC1(N2CCOCC2)CCCCC1`, the inhibition is inactive: -0.205%.

For `O=C(NCC1(N2CCCCC2)CCCCC1)c1ccc2ncsc2c1`, the inhibition is inactive: 0.789%.

Regarding `Cc1cc(C(=O)NCC2(N3CCOCC3)CCCCC2)c2ccccc2n1`, the inhibition is inactive: 17.4%.

Take `O=C(NCC1(N2CCOCC2)CCCCC1)c1ccccc1Cl`: the inhibition is inactive: -8.24%.

In the case of `N#Cc1ccc(C(=O)NCC2(N3CCCCC3)CCCCC2)cc1`, the inhibition was inactive: 0.00568%.

For `CN(C)c1ccc(C(=O)NCC2(N3CCCCC3)CCCCC2)cc1`, the inhibition is inactive: 5.04%.
